Here are results for 9 compounds from patent publication US7488832B2, “Azolylacylguanidines as β-secretase inhibitors” (Wyeth, priority 2005, dated 2009).

Sequences of proteins named here, by UniProt entry; tags and fusion partners are left off. Residues count along the entry.
UniProt P56817, 46-501 limits assumed: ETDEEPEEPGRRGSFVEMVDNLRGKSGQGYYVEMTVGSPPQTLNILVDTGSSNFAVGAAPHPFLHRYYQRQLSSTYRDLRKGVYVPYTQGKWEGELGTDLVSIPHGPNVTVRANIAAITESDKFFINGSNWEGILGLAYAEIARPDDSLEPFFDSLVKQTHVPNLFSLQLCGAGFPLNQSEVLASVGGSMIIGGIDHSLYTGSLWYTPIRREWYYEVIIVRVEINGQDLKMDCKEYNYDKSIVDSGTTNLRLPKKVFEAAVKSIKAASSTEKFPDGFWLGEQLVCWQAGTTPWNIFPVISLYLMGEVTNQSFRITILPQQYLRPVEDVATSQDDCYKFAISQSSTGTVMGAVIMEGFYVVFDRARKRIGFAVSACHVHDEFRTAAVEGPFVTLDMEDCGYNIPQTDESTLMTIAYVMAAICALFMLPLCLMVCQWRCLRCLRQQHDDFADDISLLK

This experiment has as its target human BACE1 (Homo sapiens, UniProt P56817). The experiment can be described thus: Fluorescent kinetic assay, human BACE1 (FRET peptide substrate WABC-6).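 Further: fluorescence monitored at excitation 320 nm and emission 420 nm over 30 min, with the substrate cleavage rate taken as the linear slope of the signal.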 It counts as biochemical. The settings on record: read-out: IC50 (μM) BACE 1, 25 μM substrate WABC-6, pH 4.5, room temperature.
In the case of `C=C(C)COc1ccc(-c2ccc(-c3ccccc3)n2CC(=O)N=C(N)N)cc1`, the IC50 is 1.1 to 5 µM. For the compound `NC(=NC(=O)Cn1c(-c2ccccc2)ccc1-c1ccc(Br)cc1)NCc1ccc(F)c(F)c1F`, the IC50 is 1.1 to 5 µM. For `COC(=O)[C@@H](C)CNC(N)=NC(=O)Cn1c(-c2ccc(Oc3ccccc3)cc2)ccc1-c1ccccc1Cl`, the IC50 lay within 1.1 to 5 µM. For `N#CCCCNC(N)=NC(=O)Cn1c(-c2ccc(Oc3ccccc3)cc2)ccc1-c1ccccc1Cl`, the IC50 is 0.11 to 1 µM. As to `CC(=O)Nc1ccc(-c2ccc(-c3cccc(Cl)c3)n2CC(=O)N=C(N)N)cc1Br`, the IC50 was 1.1 to 5 µM. As for `NC(=NC(=O)Cn1c(-c2ccccc2)ccc1-c1ccc(Br)cc1)NCCCO`, the IC50 fell in the range of 0.11 to 1 µM.

Take `NC(=NC(=O)Cn1c(-c2ccccc2)ccc1C12CC3CC(CC(C3)C1)C2)N[C@H]1CC[C@H](O)CC1` (relative stereo): the IC50 was in the range of 0.11 to 1 µM.

Turning to `CC(=O)OCCNC(N)=NC(=O)Cn1c(-c2ccc(Oc3ccccc3)cc2)ccc1-c1ccccc1Cl`, the IC50 lay within 0.11 to 1 µM.

For the compound `NC(=NC(=O)Cn1c(-c2ccccc2)ccc1C12CC3CC(CC(C3)C1)C2)NCCC1OCCO1`, the IC50 is 0.11 to 1 µM.
